Experimental data from publication PMC6222444, “Structural Basis for the Interaction between p53 Transactivation Domain and the Mediator Subunit MED25” (Molecules : A Journal of Synthetic Chemistry and Natural …, 2018).

Target: T1, MED25 activator interaction domain (MED25 ACID, residues 394-543) (human, UniProt Q71SY5 394-543)
T1 construct: Uniformly 15N-labelled in the NMR experiments where it was observed; unlabelled elsewhere; No removal of the His6 tag is described; source: E. coli BL21(DE3)RIL, purified (Ni-NTA, HiTrap-SP, Superdex-75)
T1 sequence (looked up): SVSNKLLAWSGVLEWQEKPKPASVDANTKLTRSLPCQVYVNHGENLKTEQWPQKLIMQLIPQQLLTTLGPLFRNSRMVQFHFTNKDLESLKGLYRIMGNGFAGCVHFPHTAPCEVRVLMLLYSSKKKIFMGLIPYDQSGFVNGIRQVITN
Test: ITC; 600 µM MED25 ACID titrated into 20 µM p53TAD; 25 mM sodium phosphate, 100 mM NaCl, pH 7.0, 25 °C; one-site binding fit
Settings: both partners purified

Kd: 0.8 ± 0.1 µM
B1: p53 transactivation domain (p53TAD, […]) (domain or fragment)
chain: not shown
notes: Uniformly 15N-labelled in the NMR experiment where it was observed; unlabelled elsewhere; also called full-length p53TAD; source: E. coli BL21(DE3)RIL, purified (GST column, thrombin cleavage, HiTrap-Q, Superdex-75); not shown: GST, N-terminal, cleaved
